The text below walks through data of ChEMBL document CHEMBL2331319, “Development of N-Hydroxycinnamamide-Based Histone Deacetylase Inhibitors with Indole-Containing Cap Group” (ACS Med Chem Lett, 2013).

By UniProt entry, the sequences of proteins in these tests, tags left out. Where a name states a change or a piece, a line headed by the entry shows the natural chain unless it says otherwise.
UniProt O15379: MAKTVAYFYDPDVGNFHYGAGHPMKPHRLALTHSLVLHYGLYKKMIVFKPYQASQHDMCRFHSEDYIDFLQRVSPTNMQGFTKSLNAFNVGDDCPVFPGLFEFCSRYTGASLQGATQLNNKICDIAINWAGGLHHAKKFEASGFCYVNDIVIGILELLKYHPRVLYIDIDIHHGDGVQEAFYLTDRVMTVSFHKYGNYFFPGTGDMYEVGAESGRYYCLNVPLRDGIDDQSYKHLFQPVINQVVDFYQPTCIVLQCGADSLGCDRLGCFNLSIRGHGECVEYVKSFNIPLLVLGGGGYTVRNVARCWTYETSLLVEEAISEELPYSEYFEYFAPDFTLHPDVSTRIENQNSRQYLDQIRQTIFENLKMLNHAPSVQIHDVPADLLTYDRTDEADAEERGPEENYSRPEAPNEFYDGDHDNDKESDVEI
UniProt Q13547, whole entry: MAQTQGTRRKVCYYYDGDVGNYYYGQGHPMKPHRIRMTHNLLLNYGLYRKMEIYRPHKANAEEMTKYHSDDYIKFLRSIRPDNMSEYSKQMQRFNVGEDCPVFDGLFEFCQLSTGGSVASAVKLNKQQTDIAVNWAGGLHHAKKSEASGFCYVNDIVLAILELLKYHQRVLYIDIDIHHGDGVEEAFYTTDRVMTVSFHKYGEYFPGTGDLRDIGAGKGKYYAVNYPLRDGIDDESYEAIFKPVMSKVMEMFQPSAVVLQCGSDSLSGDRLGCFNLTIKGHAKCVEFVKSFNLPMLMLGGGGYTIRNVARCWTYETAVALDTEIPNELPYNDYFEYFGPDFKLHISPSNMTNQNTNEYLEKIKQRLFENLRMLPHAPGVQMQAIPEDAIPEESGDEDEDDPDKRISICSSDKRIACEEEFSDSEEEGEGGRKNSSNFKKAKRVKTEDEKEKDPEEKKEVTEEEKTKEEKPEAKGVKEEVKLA
UniProt Q92769, whole entry: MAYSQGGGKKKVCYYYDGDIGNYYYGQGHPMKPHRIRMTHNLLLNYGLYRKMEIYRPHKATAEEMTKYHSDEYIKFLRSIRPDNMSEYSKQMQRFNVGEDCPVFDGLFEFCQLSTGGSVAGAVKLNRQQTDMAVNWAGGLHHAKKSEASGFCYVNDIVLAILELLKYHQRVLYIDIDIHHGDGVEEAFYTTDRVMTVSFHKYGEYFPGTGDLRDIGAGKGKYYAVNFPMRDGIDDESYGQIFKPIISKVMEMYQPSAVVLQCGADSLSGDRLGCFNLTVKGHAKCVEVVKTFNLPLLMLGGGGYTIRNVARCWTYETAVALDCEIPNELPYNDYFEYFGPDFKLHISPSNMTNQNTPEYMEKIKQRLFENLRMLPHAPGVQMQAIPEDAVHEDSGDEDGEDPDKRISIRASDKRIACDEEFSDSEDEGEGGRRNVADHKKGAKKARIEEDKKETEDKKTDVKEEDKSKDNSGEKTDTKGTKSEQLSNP

For one experiment, the target named is Histone deacetylase 3 (Homo sapiens, UniProt O15379). The experiment in a line: Inhibition of HDAC3 (unknown origin) using Boc-Lys(acetyl)-AMC as substrate preincubated with enzyme for 5 mins prior to substrate addition measured after 30 mins by fluorescence assay.
For the next experiment, the target named is Histone deacetylase 1 (Homo sapiens, UniProt Q13547). Put plainly: Inhibition of HDAC1 (unknown origin) using Boc-Lys(acetyl)-AMC as substrate preincubated with enzyme for 5 mins prior to substrate addition measured after 30 mins by fluorescence assay.
The target of a further experiment is Histone deacetylase 2 (Homo sapiens, UniProt Q92769).

Usually IC50 stands for the point on the concentration scale where inhibition reaches its midpoint. As to `CCCC(CCC)C(=O)N[C@H](COc1ccc(/C=C/C(=O)NO)cc1OC)Cc1c[nH]c2ccccc12`, the IC50 came out at 280 nM at Histone deacetylase 3, 390 nM against Histone deacetylase 1 and 1420 nM at Histone deacetylase 2.
